Experimental data published in publication PMC3226499, “Environmental Impact on Vascular Development Predicted by High-Throughput Screening” (Environmental Health Perspectives, 2011).

System: six prioritized vascular targets (VEGFR2, TIE2, CCL2, PAI-1, CXCL10, uPAR)
Assay: Vascular bioactivity score (VBS): weighted sum of activity across 23 ToxCast assays
Design: species or system human
Conditions: pVDCs with rabbit-specific effects

**Q.** Which VBS does the source give for CC(C)OP(=S)(OC(C)C)SCCNS(=O)(=O)c1ccccc1 here?
**A.** 2.17
